Consider one compound from PubChem BioAssay AID1490 (National Center for Advancing Translational Sciences (NCATS), 2009).

The entries are a selection whose mix differs from that of the whole data set. Records with an inconclusive call do not appear. Active and inactive are the calls of the source. Calls come from the whole dose curve; as a rule, active = well fitted inhibition curve with a large enough effect; inconclusive = small, poorly fitted or top-dose-only effect, or another doubt; inactive = no such curve, though single readings can be large or run the other way.

The target in this assay is 4'-phosphopantetheinyl transferase ffp (Bacillus subtilis) (UniProt Q9F4F7). As to the kind of experiment: qHTS Assay for Inhibitors of Bacillus subtilis Sfp phosphopantetheinyl transferase (PPTase).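 Note: the enzyme is Sfp with the accession as filed and its product quenches rhodamine fluorescence; 0% = enzyme reaction without inhibitor and -100% = no enzyme wells.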 As to conditions: Biochemical Sfp PPTase activity.
For `COc1ccc2nc(NP(=O)(c3ccccc3)c3ccccc3)sc2c1`, the largest response in the series, negative = inhibition was inactive: 14.5%.
